In PubChem BioAssay AID2100 (National Center for Advancing Translational Sciences (NCATS), 2009):
Only a part is listed here, and it is no random draw. Some of these compounds have results that are not shown, active ones among them. Inconclusive results are not listed. Activity calls are given as the source filed them. Calls come from the whole dose curve; as a rule, active = well fitted inhibition curve with a large enough effect; inconclusive = small, poorly fitted or top-dose-only effect, or another doubt; inactive = no such curve, though single readings can be large or run the other way.

Molecular target: Lysosomal alpha-glucosidase (Homo sapiens) (UniProt P10253)
Experiment: qHTS Assay for Inhibitors and Activators of Human alpha-Glucosidase Cleavage of Glycogen;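 note: 0% = full enzyme reaction and -100% = no-enzyme basal signal; the screen sought inhibitors and activators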
Conditions: recombinant GAA, glycogen substrate, Amplex Red glucose oxidase fluorescence
Source text: NIH Chemical Genomics Center [NCGC] NIH Molecular Libraries Probe Production Centers Network [MLPCN] MLPCN Grant: R03 MH084841-01 Assay Submitter (PI): Wei Zheng NCGC Assay Overview: Alpha-glucosidase is responsible for the hydrolysis of terminal, non-reducing 1,4-linked alpha-D-glucose residues, which releases alpha-D-glucose. It is a lysosomal hydrolase that is required for the degradation of a small percentage (1-3%) of cellular glycogen in humans. Deficiency of this enzyme results in glycogen-storage disease type II (GSDII), also referred to as Pompe disease, an autosomal recessive disorder. Structurally normal glycogen is accumulated in the lysosomes and cytoplasm in affected patients, primarily in muscle tissues. Excessive glycogen storage within lysosomes may interrupt normal functioning of other organelles and leads to cellular injury. In turn, this leads to enlargement and dysfunction of the entire organ involved (eg: cardiomyopathy and muscle weakness). It has been reported that the improper folding and trafficking of alpha-glucosidase resulting from genetic mutations may account for a significant number of Pompe patients. […] We optimized this alpha-glucosidase assay in 1536-well plate format for identification of novel small molecule inhibitors or activators with structures other than the sugar analogs in order to develop new pharmacological chaperones. Previous assays of alpha-Glucosidase have utilized a non-natural fluorescent substrate to probe enzyme activity. The present assay measures enzyme activity on glycogen using a coupled-assay system to glucose oxidase.
NCGC Assay Protocol Summary: This is an enzyme assay using glycogen from bovine liver (Sigma catalog #: G0885) as the substrate and recombinant human alpha-glucosidase as the enzyme preparation. Upon hydrolysis of the substrate, the glucose product can be detected using the Amplex Red Glucose Oxidase Assay Kit (Invitrogen catalog #: A22189). The product of this reaction can be read with a fluorescence plate reader with an excitation at 573 nm and an emission at 610 nm. Data were normalized to the controls for basal activity (without enzyme) and 100% activity (with enzyme). The AC50 values were determined from concentration-response data modeled with the standard Hill equation. Assay buffer for enzyme reaction: 50 mM citric acid (titrated with potassium phosphate to pH 5.0), 0.01% Tween-20 (pH 5.0 is an optimal condition for this enzyme assay) Assay buffer for Amplex Red reaction: Tris-HCl, pH 7.5 1536-well assay protocol for the alpha-glucosidase assay: (1) Add 2 ul/well alpha-glucosidase enzyme solution (4 nM final) (2) Add 23 nL compounds in DMSO solution. The final titration was 0.7 nM to 77 uM. (3) Add 1 ul of glycogen substrate solution (30 ug) (4) Incubate at 37 C for 40 min (5) Add 2 ul tris-HCl buffer with Amplex Red reagents (6) Incubate 45 min at room temperature. (7) Detect the assay plate in a ViewLux plate reader (PerkinElmer) with Ex=573 nm and Em=610nm. Keywords: Alpha-glucosidase, Pompe Disease, pharmacological chaperone, chaperone therapy, high throughput screening, alpha-glucosidase inhibitor, MLSMR, MLSCN, NIH Roadmap, qHTS and NCGC

[1] = at 76.4 µM (top of the series) unless noted

Compound: COc1cc(C(=O)NCC2(N(C)C)CCCCC2)c([N+](=O)[O-])cc1OC
- activity change, negative = inhibition [1]: inactive: 2.28%

Compound: CN(C)C1(CNC(=O)c2ccc(Br)cc2)CCCCC1
- activity change, negative = inhibition [1]: inactive: -7.4%

Compound: O=C(NCC1(N2CCCCC2)CCCCC1)c1cccc(Cl)c1
- activity change, negative = inhibition [1]: inactive: -5.3%

Compound: COc1ccc(C(=O)NCC2(N(C)C)CCCCC2)cc1Cl
- activity change, negative = inhibition [1]: inactive: 11.9% [at 76.3 µM]

Compound: COc1cccc(C(=O)NCC2(N3CCCCC3)CCCCC2)c1
- activity change, negative = inhibition [1]: inactive: 11.4%

Compound: COc1ccc(Cl)cc1C(=O)NCC1(N(C)C)CCCCC1
- activity change, negative = inhibition [1]: inactive: 5.23%

Compound: CC(C)COc1ccc(C(=O)NCC2(N(C)C)CCCCC2)cc1
- activity change, negative = inhibition [1]: inactive: -7.52% [at 76.3 µM]

Compound: O=C(OC1CN2CCC1CC2)C(CO)(c1ccccc1)c1ccccc1 (centres undefined)
- activity change, negative = inhibition [1]: inactive: -0.372%

Compound: COc1cccc(C(=O)NCC2(N3CCOCC3)CCCCC2)c1
- activity change, negative = inhibition [1]: inactive: 4.64% [at 76.3 µM]

Compound: CN(C)c1cccc(C(=O)NCC2(N(C)C)CCCCC2)c1
- activity change, negative = inhibition [1]: inactive: -10.7%

Compound: CC(C)Oc1ccc(C(=O)NCC2(N(C)C)CCCCC2)cc1
- activity change, negative = inhibition (at 76.3 µM (top of the series)): inactive: 16%
- activity change, negative = inhibition (at 76.4 µM (top of the series)): inactive: -13.4%

Compound: COc1cc(C(=O)NCC2(N(C)C)CCCCC2)cc(OC)c1OC
- activity change, negative = inhibition [1]: inactive: 7.71% [at 76.3 µM]

Compound: Cc1cccc(C(=O)NCC2(N(C)C)CCCCC2)c1
- activity change, negative = inhibition [1]: inactive: 5.93% [at 76.3 µM]

Compound: CN1[C@@H]2CC[C@H]1CC(OC(=O)C(O)(c1ccccc1)c1ccccc1)C2 (some centres undefined)
- activity change, negative = inhibition [1]: inactive: 2.44%

Compound: O=C(NCC1(N2CCCCC2)CCCCC1)c1cc([N+](=O)[O-])ccc1Cl
- activity change, negative = inhibition [1]: inactive: -2.21%

Compound: CN(C)C1(CNC(=O)c2ccccc2F)CCCCC1
- activity change, negative = inhibition [1]: inactive: 15.9% [at 76.3 µM]

Compound: Cc1ccc(C(=O)NCC2(N3CCCCC3)CCCCC2)cc1
- activity change, negative = inhibition [1]: inactive: -13.2% [at 76.3 µM]

Compound: CC(C)N1C(=O)CC2(CCN(CCOC(=O)C(O)(c3ccccc3)c3ccccc3)CC2)C1=O
- activity change, negative = inhibition [1]: inactive: 6.27%

Compound: CN(C)C1(CNC(=O)c2cccc(Cl)c2)CCCCC1
- activity change, negative = inhibition [1]: inactive: 17.2% [at 76.3 µM]

Compound: CCN(CC)CC(C)C(C)OC(=O)C(O)(c1ccccc1)c1ccccc1 (centres undefined)
- activity change, negative = inhibition [1]: inactive: 2.86%

Compound: COc1cc(SC)ccc1C(=O)NCC1(N(C)C)CCCCC1
- activity change, negative = inhibition [1]: inactive: 2.11%

Compound: CCCCOc1ccccc1C(=O)NCC1(N(C)C)CCCCC1
- activity change, negative = inhibition [1]: inactive: 13.1% [at 76.3 µM]

Compound: Cc1ccccc1C(=O)NCC1(N2CCCCC2)CCCCC1
- activity change, negative = inhibition [1]: inactive: 8.96%

Compound: CN(C)C1(CNC(=O)c2ccccc2[N+](=O)[O-])CCCCC1
- activity change, negative = inhibition [1]: inactive: 0.714% [at 76.3 µM]

Compound: CN(C)c1ccc(C(=O)NCC2(N(C)C)CCCCC2)cc1
- activity change, negative = inhibition [1]: inactive: 5.21%

Compound: CN(C)C1CCCC1OC(=O)C(O)(c1ccccc1)c1ccccc1 (centres undefined)
- activity change, negative = inhibition [1]: inactive: 8.55%

Compound: CCN1CCCC(OC(=O)C2(O)c3ccccc3C=Cc3ccccc32)C1 (centres undefined)
- activity change, negative = inhibition [1]: inactive: 1.08%

Compound: Cc1cc(C(=O)NCC2(N3CCCCC3)CCCCC2)ccc1[N+](=O)[O-]
- activity change, negative = inhibition [1]: inactive: 10.9%

Compound: O=C(NCC1(N2CCCCC2)CCCCC1)c1cccc(Br)c1
- activity change, negative = inhibition [1]: inactive: 2.73%

Compound: COc1ccc(C(=O)NCC2(N(C)C)CCCCC2)cc1
- activity change, negative = inhibition [1]: inactive: -13.2%

Compound: CCOc1cccc(C(=O)NCC2(N(C)C)CCCCC2)c1
- activity change, negative = inhibition [1]: inactive: -1.24% [at 76.3 µM]

Compound: C=CCN1CCN(CCOC(=O)C(O)(c2ccccc2)c2ccccc2)CC1
- activity change, negative = inhibition [1]: inactive: 11.6%

Compound: O=C(NCC1(N2CCCCC2)CCCCC1)c1cc(F)c(F)cc1Cl
- activity change, negative = inhibition [1]: inactive: -7.5% [at 76.3 µM]
